TDP1 block: inhibitors of human tyrosyl-DNA phosphodiesterase TDP1 | recombinant TDP1, AlphaScreen DNA substrate cleavage | Potency, µM (doses to about 130 µM), without a hit: top-dose activity change, negative = inhibition, actives largely listed as inhibitors | actives 0.28% (n = 350,000) | AID 485290; note: potency is the fitted concentration of half-maximal effect; % is set by controls: 0 for no effect and ±100 for the full control effect; nearly all actives have a fitted effect of over 40% in size
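Recombinant human Tdp1 (E. coli-expressed, 1 nM final) preincubated with compounds 15 min at room temperature, then 5'-biotin/3'-phosphotyrosine-FITC DNA substrate (15 nM final) added for 5 min. AlphaScreen beads (10 ug/ml final) added 10 min; cleavage lowers signal.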
TDP1 cell CPT: DT40-hTDP1 cell growth loss with CPT. chicken DT40 Tdp1-/-;hTDP1 cells + 20 nM CPT, ATP luminescence, 48 h. Potency, µM (titrated, usually from 46.2 µM), for inactives: at the top dose activity change, negative = growth inhibition, usual class: inhibitors. actives 12% (n = 420,000); note: potency is the fitted concentration of half-maximal effect; % is set by controls: 0 for no effect and ±100 for the full control effect; nearly all actives have a fitted effect of over 55% in size
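Chicken DT40 Tdp1-/- cells complemented with human TDP1, 400 cells/well, exposed to compounds plus 20 nM camptothecin for at least 48 h at 37 C; viability read as ATP content by CellTiter-Glo luminescence.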
uPA surface inh: inhibitors of cell surface uPA generation. cell surface uPA generation assay, qHTS. Potency, µM (highest dose often 38.3 µM), without a hit: top-dose activity change, negative = inhibition, hits mostly inhibitors. actives 0.31% (n = 330,000); active = well fitted inhibition curve with a large enough effect; inconclusive = small, poorly fitted or top-dose-only effect; inactive = no such curve, though single readings can be large or run the other way; tested in mouse RAW 264.7 cells; note: potency is the fitted concentration of half-maximal effect; % is set by controls: 0 for no effect and ±100 for the full control effect; nearly all actives have a fitted effect of over 55% in size
miR-21 reporter: miR-21 reporter, rising signal | HeLa miR-21 FLuc reporter, luciferase, 48 h | Potency, µM (doses to about 38.3 µM), inactives show at the top dose reporter change, positive = more light | 340,000 tested, under 10 active | AID 2288; active = well fitted rising curve with a large enough effect; inconclusive = small, poorly fitted or top-dose-only effect; inactive = no such curve, though single readings can be large or run the other way;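 note: % of control where 0% means no effect; miR-21 action dims this reporter so a rising signal means less miR-21 action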
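HeLa cells endogenously expressing miR-21, stably carrying CMV-driven firefly luciferase with a downstream miR-21 binding site, 2000 cells/well. Titrations up to approximately 40 uM, 48 hours; luciferase luminescence read.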
TDP1 cell noCPT: qHTS for Inhibitors of human tyrosyl-DNA phosphodiesterase 1 (TDP1): qHTS in cells in absence of CPT | DT40 Tdp1-/- hTDP1 cells, no CPT, ATP luminescence, 48 h | Potency, µM (highest dose often 46.2 µM), inactives show at the top dose activity change, negative = growth inhibition, actives largely listed as inhibitors | actives 15% (n = 420,000) | AID 686978, 2013; note: potency is the fitted concentration of half-maximal effect; % is set by controls: 0 for no effect and ±100 for the full control effect; nearly all actives have a fitted effect of over 55% in size
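Growth of hTDP1-complemented DT40 Tdp1-knockout cells is measured by ATP luminescence after at least 48 hr compound exposure at 37 °C, with DMSO substituting for the 20 nM CPT used in the parallel screen.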
An asterisk follows results filed as active; ? = inconclusive; nt = no result. This is a sample that favours compounds with a hit; in the whole collection about 16% have one here. Unless noted, calls come from the whole dose curve; as a rule, active = well fitted curve in the direction sought with a large enough effect; inconclusive = small, poorly fitted or top-dose-only effect, or another doubt; inactive = no such curve, though single readings can be large; an effect the other way counts as inactive or inconclusive.

Results follow in this order: TDP1 block	TDP1 cell CPT	uPA surface inh	miR-21 reporter	TDP1 cell noCPT
Cc1ccc(-n2nc3c(N4CCC(C(=O)NCCc5ccco5)CC4)nnc(C)c3c2C)cc1
  4%	21µM*	?	2%	?
COc1ccc(-n2nc3c(N4CCCC(C(=O)NCc5ccccc5C)C4)nnc(C)c3c2C)cc1 (configuration not stated)
  nt	2.9µM*	nt	25%	5.2µM*
Cc1nnc(N2CCCC(C(=O)NCc3ccccc3F)C2)c2nn(-c3ccc(Cl)cc3)c(C)c12 (configuration not stated)
  11%	?	nt	0%	?
COc1ccccc1CNC(=O)C1CCCN(c2nnc(C)c3c(C)n(-c4ccccc4)nc23)C1 (configuration not stated)
  0%	21µM*	nt	2%	21µM*
COc1ccccc1CNC(=O)C1CCN(c2nnc(C)c3c(C)n(-c4ccccc4)nc23)CC1
  5%	16%	nt	-25%	-22%
CNC(=O)C1CCCN(c2nnc(C)c3c(C)n(-c4ccccc4)nc23)C1 (configuration not stated)
  -3%	-6%	nt	-1%	-16%
COc1ccc(-n2nc3c(N4CCC(C(=O)NCCc5ccccc5C)CC4)nnc(C)c3c2C)cc1
  6%	?	-4%	-2%	16µM*
COc1ccc(-n2nc3c(N4CCCC(C(=O)NCCc5ccc(C)cc5)C4)nnc(C)c3c2C)cc1 (configuration not stated)
  3%	3.3µM*	nt	22%	3.7µM*
Cc1ccccc1CNC(=O)C1CCN(c2nnc(C)c3c(C)n(-c4ccccc4)nc23)CC1
  3%	?	nt	-3%	?
Cc1ccc(-n2nc3c(N4CCC(C(=O)NCCc5ccccc5C)CC4)nnc(C)c3c2C)cc1
  5%	16µM*	-21%	0%	5.8µM*
COc1ccc(-n2nc3c(N4CCC(C(=O)NCCc5ccccc5)CC4)nnc(C)c3c2C)cc1
  0%	?	nt	3%	?
COc1ccc(-n2nc3c(N4CCC(C(=O)NCc5ccccc5C)CC4)nnc(C)c3c2C)cc1
  -13%	18µM*	-11%	2%	7.3µM*
C/C(CC(=O)NC1CCCC1)=N\NC(=O)C1CCCCC1
  -2%	5%	4%	0%	7%
CN=C1c2cc3cc(OC)ccc3n2CCN1Cc1ccccc1
  6%	3.3µM*	-11%	23%	2.9µM*
CCS(=O)(=O)N1CCC(C(=O)NCCC2=CCCCC2)CC1
  -2%	-9%	0%	-6%	5%
CC(C)(C)c1ccc(C(=O)N2CCC(C(=O)NCCC3=CCCCC3)CC2)cc1
  1%	?	10%	-9%	18µM*
CC(C)(C)c1ccc(C(=O)Nc2ccc(C(=O)N3CCOCC3)cc2)cc1
  4%	23µM*	-12%	9%	21µM*
Cc1ccc(C(=O)N2CCC(C(=O)NC3CCCC3)CC2)cc1
  nt	7%	0%	-1%	-14%
CC(C)(C)c1ccc(C(=O)N2CCC(C(=O)NC3CCCCCC3)CC2)cc1
  nt	?	-3%	-43%	21µM*
O=C(CN1CCC(C(=O)c2ccc(Cl)cc2)CC1)NC1CCCC1
  nt	?	1%	1%	23µM*
CCOc1ccc(CCNC(=O)C(C)n2nc(C)c3c(C)n(-c4ccccc4)nc3c2=O)cc1 (configuration not stated)
  4%	-22%	2%	-1%	-13%
CC1CCN(c2c(NCC3CCC(C(=O)NCCC4=CCCCC4)CC3)c(=O)c2=O)CC1 (configuration not stated)
  2%	18µM*	-1%	-1%	?
Cc1ccc(C(=O)N2CCC(C(=O)c3ccc(Cl)cc3)CC2)cc1
  nt	?	-3%	14%	12µM*
COc1ccc(-c2nn3c(=O)cc(CN4CCN(C(=O)c5ccc(C(C)(C)C)cc5)CC4)nc3s2)cc1
  3%	3.3µM*	nt	-5%	2.9µM*
CC(C)(C)c1ccc(C(=O)N2CCC(C(=O)c3ccccc3)CC2)cc1
  nt	18µM*	0%	3%	21µM*
O=C(NCCC1=CCCCC1)C1CCC(CNc2c(N3CCCC3)c(=O)c2=O)CC1 (configuration not stated)
  3%	-11%	-1%	-3%	-7%
Cn1ccnc1SCC(=O)Nc1cc(Cl)ccc1Cl
  7%	nt	nt	-21%	nt
CCCCNCCS(=O)(=O)NCc1ccccc1OC
  nt	0%	-6%	nt	-17%
CC(C)(C)c1nnc(NC(=O)C2CCN(C(=O)c3ccccc3)CC2)s1
  nt	14µM*	nt	nt	?
CC(C)(C)c1ccc(C(=O)N2CCNCC2)cc1
  3%	-23%	-8%	-8%	-22%
CC(C)(C)c1nnc(NC(=O)C2CCN(c3ncccn3)CC2)s1
  2%	-7%	nt	-5%	-30%
CCc1ccc(NC(=O)N2CCN(Cc3cc(=O)n4nc(-c5ccccc5OC)sc4n3)CC2)cc1
  3%	?	nt	3%	15µM*
Cc1nc(CN2CCN(C(=O)c3ccc(C(C)(C)C)cc3)CC2)cs1
  1%	?	1%	-19%	10µM*
CC(C)(C)c1ccc(C(=O)N2CCCN(C(=O)c3ccc(C(C)(C)C)cc3)CC2)cc1
  0%	?	0%	0%	13µM*
Cc1nc(-c2ccc(C(=O)N3CCCC3)cc2)cs1
  3%	-1%	-6%	-42%	-27%
COC(=O)c1ccc(NC(=O)N2CCN(Cc3cc(=O)n4nc(-c5ccc(C)cc5)sc4n3)CC2)cc1
  3%	-1%	nt	-2%	-10%
COc1ccc(CN2CCNC(=O)C2CC(=O)NCCCC2CCCC2)c(F)c1 (configuration not stated)
  5%	?	6%	-21%	?
COCCNC(=O)CN(C(=O)c1ccc(N2CCCC2)nc1)c1ccccc1
  -3%	-9%	7%	1%	6%
CC(C)(C)c1ccc(C(=O)N2CCN(C(=O)C3CCCCC3)CC2)cc1
  3%	15µM*	-1%	1%	?
CC(C)(C)c1ccc(C(=O)N2CCCCC2CCN2CCCCC2)cc1 (configuration not stated)
  2%	?	nt	3%	?
COc1ccc(C)cc1NC(=O)C1CCN(S(C)(=O)=O)CC1
  nt	6%	28%	-1%	5%
COc1ccc(C)cc1NC(=O)C1CCN(C(=O)c2ccc(C(C)(C)C)cc2)CC1
  nt	?	-8%	-19%	18µM*
C=CCn1c(Cc2csc(N)n2)nnc1SCC(=O)Nc1ccccc1C(F)(F)F
  8%	-12%	-23%	-2%	-29%
COc1ccc(C(=O)NCC(c2cccnc2)N2CCN(c3ccccc3F)CC2)cc1OC (configuration not stated)
  3%	?	nt	1%	?

Rewritten as labelled records: part of the list above.
> C=CCn1c(Cc2csc(N)n2)nnc1SCC(=O)Nc1ccccc1C(F)(F)F
  TDP1 block: 8%	TDP1 cell CPT: -12%	uPA surface inh: -23%	miR-21 reporter: -2%	TDP1 cell noCPT: -29%

> COc1ccc(C(=O)NCC(c2cccnc2)N2CCN(c3ccccc3F)CC2)cc1OC (configuration not stated)
  TDP1 block: 3%	TDP1 cell CPT: ?	uPA surface inh: nt	miR-21 reporter: 1%	TDP1 cell noCPT: ?

Ordered by length of the SMILES (lowest first): part of the list above.
Results follow in this order: TDP1 block	TDP1 cell CPT	uPA surface inh	miR-21 reporter	TDP1 cell noCPT
COc1ccc(C)cc1NC(=O)C1CCN(S(C)(=O)=O)CC1
  nt	6%	28%	-1%	5%
C=CCn1c(Cc2csc(N)n2)nnc1SCC(=O)Nc1ccccc1C(F)(F)F
  8%	-12%	-23%	-2%	-29%
COc1ccc(C(=O)NCC(c2cccnc2)N2CCN(c3ccccc3F)CC2)cc1OC (configuration not stated)
  3%	?	nt	1%	?
